A word on the Kd: it is the concentration at which binding is half-saturated. Low values mean higher affinity, high ones lower affinity.

The assay concerns the target T1, PEAK1^IDR1 phosphorylated by Src (human, UniProt Q9H792 1082-1746, phosphotyrosine at 1107 (by Src in vitro, MS/MS); biotin (EZ-Link NHS-PEG4-Biotin)).
T1 chain: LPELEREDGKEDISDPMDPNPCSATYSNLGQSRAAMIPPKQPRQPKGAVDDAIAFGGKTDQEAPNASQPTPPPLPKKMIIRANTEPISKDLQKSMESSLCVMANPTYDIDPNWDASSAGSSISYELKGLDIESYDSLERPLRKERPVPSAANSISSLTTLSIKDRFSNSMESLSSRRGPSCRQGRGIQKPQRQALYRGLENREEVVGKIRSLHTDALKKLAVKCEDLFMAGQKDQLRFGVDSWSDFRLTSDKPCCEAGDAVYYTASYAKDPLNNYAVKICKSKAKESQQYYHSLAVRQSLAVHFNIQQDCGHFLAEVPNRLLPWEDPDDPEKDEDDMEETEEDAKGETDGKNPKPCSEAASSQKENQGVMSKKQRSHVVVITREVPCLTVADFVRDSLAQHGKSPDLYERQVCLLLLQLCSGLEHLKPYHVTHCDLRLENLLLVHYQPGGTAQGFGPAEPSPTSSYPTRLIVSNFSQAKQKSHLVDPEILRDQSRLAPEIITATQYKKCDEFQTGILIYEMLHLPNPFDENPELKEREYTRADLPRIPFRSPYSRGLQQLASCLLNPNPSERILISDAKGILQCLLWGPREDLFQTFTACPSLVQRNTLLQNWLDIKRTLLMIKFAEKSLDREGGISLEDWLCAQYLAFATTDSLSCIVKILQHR
Description: SPR. On the technique in general: Surface plasmon resonance follows binding to a sensor surface in real time, without labels.

B1: Grb2 SH2 domain (Grb2^SH2) (domain or fragment)
chain: WFFGKIPRAKAEEMLSKQRHDGAFLIRESESAPGDFSLSVKFGNDVQHFKVLRDGAGKYFLWVVKFNSLNELVDYHRSTSVSRNQQIFLRDIE
modifications: biotin (EZ-Link NHS-PEG4-Biotin) where immobilised for SPR
B1 registered a dissociation constant Kd of 13.3 µM.

For the origin of these results see article PMC10279719 (2023).
